Patent US20230265432

Target: Myc-tagged RBBP4

B1: Flag-tagged full-length RNF5 (WT) (protein)
chain: MAAAEEEDGGPEGPNRERGGAGATFECNICLETAREAVVSVCGHLYCWPCLHQWLETRPERQECPVCKAGISREKVVPLYGRGSQKPQDPRLKTPPRPQGQRPAPESRGGFQPFGDTGGFHFSFGVGAFPFGFFTTVFNAHEPFRRGTGVDLGQGHPASSWQDSLFLFLAIFFFFWLLSI
poly-ubiquitination of Myc-RBBP4 with K-only HA-ubiquitin mutants (K29, K11, K27, K6, K33): Poly-ubiquitination of RBBP4 was enhanced by RNF5 only in the presence of K29 ubiquitin
